System: HepaRG cells

In the case of `CO[C@H]1/C=C/O[C@@]2(C)Oc3c(C)c(O)c4c(O)c(c(/C=N/N5CCN(C)CC5)c(O)c4c3C2=O)NC(=O)/C(C)=C\C=C\[C@H](C)[C@H](O)[C@@H](C)[C@@H](O)[C@@H](C)[C@H](OC(C)=O)[C@@H]1C` [rifampicin, reference compound], the “CYP7A1 mRNA in HepaRG cells” value is reported as “downregulated”.

— article PMC11802874, “The hypolipidemic effect of MI-883, the combined CAR agonist/ PXR antagonist, in diet-induced hypercholesterolemia model” (Nature Communications, 2025)
